Molecular target: T1, melanocortin receptor 4 (MCR4) (Homo sapiens, UniProt P32245)
T1 construct: yeast alpha-factor leader (N); expressed in transfected cells; host or cells: S. cerevisiae CY0151 (wild type (so in the source)) and CY14804 (cav1), plasmid Cp4421
Test: β-galactosidase assay in yeast expressing MCR4
Type: cell-based
Details: CY14804 (cav1) versus wild type, 2 hours incubation

Protein sequences, listed by entry. Tags and fused reporters are not part of them.
UniProt P32245, whole entry: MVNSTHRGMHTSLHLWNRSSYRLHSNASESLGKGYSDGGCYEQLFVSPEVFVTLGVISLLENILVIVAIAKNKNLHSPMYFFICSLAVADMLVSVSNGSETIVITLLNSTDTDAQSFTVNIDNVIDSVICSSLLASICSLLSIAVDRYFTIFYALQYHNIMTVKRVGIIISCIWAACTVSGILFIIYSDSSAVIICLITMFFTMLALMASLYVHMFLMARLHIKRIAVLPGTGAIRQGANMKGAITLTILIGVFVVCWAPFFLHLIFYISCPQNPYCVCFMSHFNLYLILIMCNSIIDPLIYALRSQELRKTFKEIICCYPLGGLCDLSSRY

Substance: NDP-α-MSH
- increase of ligand-induced level of β-galactosidase activity in cav1 background: 2-3 fold

— patent US6251605A, “Yeast cells having mutations in Cav1 and uses therefor” (priority 1999, dated 2001)
